Values of other authors in patent US20100184765A1, “Protein Kinase Inhibitors and Methods for Using Thereof” (IRM LLC, priority 2007, published 2010).

Sequences of proteins named here, by UniProt entry; tags and fusion partners are left off. Residues count along the entry.
UniProt P35968, 20-1356, species assumed: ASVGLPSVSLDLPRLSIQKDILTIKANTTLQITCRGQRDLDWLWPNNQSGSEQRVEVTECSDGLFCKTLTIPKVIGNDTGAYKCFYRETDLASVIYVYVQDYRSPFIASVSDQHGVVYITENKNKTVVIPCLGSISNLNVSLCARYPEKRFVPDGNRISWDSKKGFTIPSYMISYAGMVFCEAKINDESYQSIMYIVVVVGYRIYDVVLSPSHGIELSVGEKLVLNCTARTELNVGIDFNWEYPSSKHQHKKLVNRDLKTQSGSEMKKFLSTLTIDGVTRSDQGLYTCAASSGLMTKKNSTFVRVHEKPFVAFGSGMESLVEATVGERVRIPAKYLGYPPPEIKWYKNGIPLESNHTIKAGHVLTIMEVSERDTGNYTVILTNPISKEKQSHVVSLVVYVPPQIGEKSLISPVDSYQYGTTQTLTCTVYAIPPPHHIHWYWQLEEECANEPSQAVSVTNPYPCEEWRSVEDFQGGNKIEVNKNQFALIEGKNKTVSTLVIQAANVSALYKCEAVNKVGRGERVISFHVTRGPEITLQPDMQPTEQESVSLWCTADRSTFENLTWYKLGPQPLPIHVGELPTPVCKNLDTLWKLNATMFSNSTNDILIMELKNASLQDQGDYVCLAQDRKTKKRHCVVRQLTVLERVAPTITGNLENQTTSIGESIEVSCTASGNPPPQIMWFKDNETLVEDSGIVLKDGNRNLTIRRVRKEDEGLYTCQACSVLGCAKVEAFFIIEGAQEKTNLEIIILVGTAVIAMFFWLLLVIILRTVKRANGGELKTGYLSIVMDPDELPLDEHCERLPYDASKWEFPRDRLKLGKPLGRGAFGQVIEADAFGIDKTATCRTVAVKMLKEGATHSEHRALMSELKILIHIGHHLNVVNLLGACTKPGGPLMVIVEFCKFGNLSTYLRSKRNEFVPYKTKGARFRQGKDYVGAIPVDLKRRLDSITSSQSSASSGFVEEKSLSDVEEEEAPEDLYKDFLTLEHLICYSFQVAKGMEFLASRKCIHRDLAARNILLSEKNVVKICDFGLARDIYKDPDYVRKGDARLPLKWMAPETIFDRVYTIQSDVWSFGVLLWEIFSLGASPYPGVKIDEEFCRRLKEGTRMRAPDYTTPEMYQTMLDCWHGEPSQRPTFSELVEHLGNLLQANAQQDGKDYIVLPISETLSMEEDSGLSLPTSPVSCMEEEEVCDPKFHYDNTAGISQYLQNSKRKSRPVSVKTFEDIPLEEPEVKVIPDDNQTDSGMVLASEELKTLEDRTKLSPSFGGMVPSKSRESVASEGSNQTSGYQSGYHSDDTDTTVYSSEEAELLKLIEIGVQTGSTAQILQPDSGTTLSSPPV

Biological target: KDR (Homo sapiens, UniProt P35968)

Question: For VEGF, which Kd is on record?
Answer: 0.075 nM
